PubChem BioAssay AID1745853 (National Center for Advancing Translational Sciences (NCATS), 2022)
This is a selection; strong and weak results do not stand in their true shares. Results filed as inconclusive are left out. Some salts or complexes appear as unconnected parts, following the source record. The source made the active and inactive calls. How the calls were made is not given here.

Amino acid sequences for entries named in this document (tags omitted).
UniProt P21964, whole entry: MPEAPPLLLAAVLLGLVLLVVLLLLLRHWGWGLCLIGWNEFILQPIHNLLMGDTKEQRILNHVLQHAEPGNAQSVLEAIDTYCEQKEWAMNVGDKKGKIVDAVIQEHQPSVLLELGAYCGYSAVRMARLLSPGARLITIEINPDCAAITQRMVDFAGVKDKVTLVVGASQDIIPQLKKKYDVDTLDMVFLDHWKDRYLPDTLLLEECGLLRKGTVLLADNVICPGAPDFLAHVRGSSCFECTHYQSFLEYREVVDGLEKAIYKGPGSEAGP

Biological target: Catechol O-methyltransferase (Homo sapiens) (UniProt P21964)
Test: Primary Screen for Target Class Profiling of Small Molecule Inhibitors of Methyltransferases
Settings: purified enzyme, MTase-Glo SAH luminescence; at 40 µM; active compounds read low
Source text: PI: Matthew D. Hall Ph.D. and Quinlin M. Hanson Ph.D.
National Center for Advancing Translational Sciences (NCATS)
National Institute of Health (NIH), Rockville, MD
Target class profiling (TCP) is a chemical biology approach amenable to investigating understudied biological targets. TCP is achieved by developing a generalizable assay platform and applying it to screen a curated set of compound libraries against representative members of a target class. Small molecule methyltransferases (SMMTase) are a subclass of methyltransferase that act on metabolites to modulate signaling pathways, metabolize xenobiotics, or balance the available methyl pool. […]
High-through put screening assays were developed at the National Center for Advancing Translational Science (NCATS) for the enzymes NNMT, PNMT, HNMT, GNMT, COMT, and GAMT. Enzymatic activity was measured as a function of SAM cofactor conversion using the MTase Glo kit (Promega) for all enzymes. […] The IC50 and efficacy (maximal response) values were determined for each dose-response curve. […]
10; Time; 30 min; Incubation, luminescence evolution.
11; Detection; Luminescence; ViewLux uHTS Microplate Imager (PerkinElmer). […]
On the % scale 0 is the no-effect control and ±100 the full control effect.

Compound | activity change, negative = inhibition
C/C1=C2N=C(/C=C3N=C(/C(C)=C4\N=C(C(CC(N)=O)C4(C)CCC(=O)NCC(C)OP(=O)([O-])OC4C(CO)OC(n5cnc6cc(C)c(C)cc65)C4O)C4(C)N=C1C(CCC(N)=O)C4(C)CC(N)=O)C(CCC(N)=O)C\3(C)C)C(CCC(N)=O)C/2(C)CC(N)=O.[C-]#N.[Co] (configuration not stated) | active: -21.6%
CCOP(=O)(CC)Oc1ccc([N+](=O)[O-])cc1 (configuration not stated) | inactive: -2.63%
